# According to US8999940B2, “Analogues of glucose-dependent insulinotropic polypeptide (GIP) modified at N-terminal” (Ipsen Pharma S.A.S., priority 2008, dated 2015):
# Assays:
# [1] = Human plasma half-life assay; type: in vitro ADME; conditions: 37° C., LC-MS, read-out: Human Plasma T½ (converted)
# Experimental: (§1) B. Human and Rat Plasma Half-Life Assay
# (§2) GIP peptide (50 μl 1 mg/ml) was added to 450 μl plasma (human or rat), vertexed briefly and incubated at 37° C. 50 μl was removed at various times, like at 0, 1, 2, 3, 4, 8, 24, 32, 48, 56, 72 hours, mixed with 5 μl formic acid and 150 μL acetonitrile in a microcentrifuge tube, vertexed, and centrifuged for 10 minutes at 10 K rpm. The supernatant was transferred to an injection vial and analyzed by LC-MS. The LC-MS system consisted of an API4000 mass spectrometer with an ESI probe. Positive ion mode and full scan detection were used. HPLC separation was carried out on a Luna 3μ. C8 (2), 2×30 mm column with a gradient from 90% A to 90% B in 10 minutes at a flow rate of 0.3 ml/min. Buffer A was 1% formic acid in water and buffer B was 1% formic acid acetonitrile.
# [2] = Rat plasma half-life assay; type: in vitro ADME; conditions: 37° C., LC-MS, read-out: Rat Plasma T½ (converted)
# Experimental: as §1, §2
# [3] = biological target: T1, human recombinant GIP receptor (Homo sapiens, UniProt P48546); assay: In vitro hGIP receptor binding assay
# T1 construct: expressed in transfected cells; host or cells: CHO-K1 clonal cells (membrane preparation)
# T1 sequence (P48546 22-466): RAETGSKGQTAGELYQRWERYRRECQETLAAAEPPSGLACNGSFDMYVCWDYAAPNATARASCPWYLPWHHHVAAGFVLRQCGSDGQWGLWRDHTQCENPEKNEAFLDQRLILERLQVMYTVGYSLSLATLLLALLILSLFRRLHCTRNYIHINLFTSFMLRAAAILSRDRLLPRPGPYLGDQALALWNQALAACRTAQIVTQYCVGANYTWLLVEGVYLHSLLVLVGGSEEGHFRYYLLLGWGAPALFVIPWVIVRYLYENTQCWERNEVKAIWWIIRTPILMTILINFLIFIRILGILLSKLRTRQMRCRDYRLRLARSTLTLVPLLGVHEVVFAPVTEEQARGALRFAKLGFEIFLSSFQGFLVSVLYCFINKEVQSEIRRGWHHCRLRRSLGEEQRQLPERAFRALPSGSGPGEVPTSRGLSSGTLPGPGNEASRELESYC
# Experimental: A. In Vitro hGIP Receptor Binding Assay […] The incubations were terminated by rapid filtration through GF/C filters (pre-soaked in 0.5% polyethylenimine) using a Brandel filtration manifold. Each tube and filter were then washed three times with 5-ml aliquots of ice-cold buffer. Specific binding was defined as the total radioligand bound minus that bound in the presence of 1000 nM GIP.
smiles,measurement,setting,value
"CC[C@H](C)[C@H](NC(=O)[C@H](CCCCN)NC(=O)[C@H](CC(=O)O)NC(=O)C1(NC(=O)[C@H](C)NC(=O)[C@@H](NC(=O)C2(NC(=O)[C@H](Cc3ccc(O)cc3)NC(=O)[C@H](CC(=O)O)NC(=O)[C@H](CO)NC(=O)[C@@H](NC(=O)[C@H](Cc3ccccc3)NC(=O)[C@@H](NC(=O)CNC(=O)[C@H](CCC(=O)O)NC(=O)C(C)(C)NC(=O)[C@@H](N)Cc3ccc(O)c(Cl)c3)[C@@H](C)O)[C@@H](C)CC)CCCC2)[C@@H](C)CC)CCCC1)C(=O)N[C@@H](Cc1c[nH]cn1)C(=O)N[C@@H](CCC(N)=O)C(=O)N[C@@H](CCC(N)=O)C(=O)N[C@@H](CC(=O)O)C(=O)N[C@@H](Cc1ccccc1)C(=O)N[C@H](C(=O)N[C@@H](CC(N)=O)C(=O)N[C@@H](Cc1c[nH]c2ccccc12)C(=O)N[C@@H](CC(C)C)C(=O)N[C@@H](CC(C)C)C(=O)N[C@@H](C)C(=O)N[C@@H](CCC(N)=O)C(=O)N[C@@H](CCCCN)C(=O)NCC(=O)N[C@@H](CCCCN)C(=O)N[C@@H](CCCCN)C(=O)N[C@@H](CC(N)=O)C(=O)N[C@@H](CC(=O)O)C(=O)N[C@@H](Cc1c[nH]c2ccccc12)C(=O)N[C@@H](CCCCN)C(=O)N[C@@H](Cc1c[nH]cn1)C(=O)N[C@@H](CC(N)=O)C(=O)N[C@H](C(=O)N[C@H](C(=O)N[C@@H](CCC(N)=O)C(=O)N[C@@H](Cc1c[nH]cn1)C(=O)O)[C@@H](C)O)[C@@H](C)CC)C(C)C [Example 63, (3Cl-Tyr^1, Aib^2, A5c^11, 14, His^43)hGIP(1-43)-OH]",half-life at 0.1 mg/ml,[1],43 h
same,half-life at 0.1 mg/ml,[2],34.7 h
same,Ki,[3],0.78 nM
